This note sets out measurements from patent publication US11149066B2, “Thrombospondin 1-binding peptide” (DAIICHI SANKYO COMPANY, LIMITED, priority 2016, dated 2021).

Amino acid sequences for entries named in this document (tags omitted). Residues count along the entry.
UniProt P07996, 19-1170 limits assumed: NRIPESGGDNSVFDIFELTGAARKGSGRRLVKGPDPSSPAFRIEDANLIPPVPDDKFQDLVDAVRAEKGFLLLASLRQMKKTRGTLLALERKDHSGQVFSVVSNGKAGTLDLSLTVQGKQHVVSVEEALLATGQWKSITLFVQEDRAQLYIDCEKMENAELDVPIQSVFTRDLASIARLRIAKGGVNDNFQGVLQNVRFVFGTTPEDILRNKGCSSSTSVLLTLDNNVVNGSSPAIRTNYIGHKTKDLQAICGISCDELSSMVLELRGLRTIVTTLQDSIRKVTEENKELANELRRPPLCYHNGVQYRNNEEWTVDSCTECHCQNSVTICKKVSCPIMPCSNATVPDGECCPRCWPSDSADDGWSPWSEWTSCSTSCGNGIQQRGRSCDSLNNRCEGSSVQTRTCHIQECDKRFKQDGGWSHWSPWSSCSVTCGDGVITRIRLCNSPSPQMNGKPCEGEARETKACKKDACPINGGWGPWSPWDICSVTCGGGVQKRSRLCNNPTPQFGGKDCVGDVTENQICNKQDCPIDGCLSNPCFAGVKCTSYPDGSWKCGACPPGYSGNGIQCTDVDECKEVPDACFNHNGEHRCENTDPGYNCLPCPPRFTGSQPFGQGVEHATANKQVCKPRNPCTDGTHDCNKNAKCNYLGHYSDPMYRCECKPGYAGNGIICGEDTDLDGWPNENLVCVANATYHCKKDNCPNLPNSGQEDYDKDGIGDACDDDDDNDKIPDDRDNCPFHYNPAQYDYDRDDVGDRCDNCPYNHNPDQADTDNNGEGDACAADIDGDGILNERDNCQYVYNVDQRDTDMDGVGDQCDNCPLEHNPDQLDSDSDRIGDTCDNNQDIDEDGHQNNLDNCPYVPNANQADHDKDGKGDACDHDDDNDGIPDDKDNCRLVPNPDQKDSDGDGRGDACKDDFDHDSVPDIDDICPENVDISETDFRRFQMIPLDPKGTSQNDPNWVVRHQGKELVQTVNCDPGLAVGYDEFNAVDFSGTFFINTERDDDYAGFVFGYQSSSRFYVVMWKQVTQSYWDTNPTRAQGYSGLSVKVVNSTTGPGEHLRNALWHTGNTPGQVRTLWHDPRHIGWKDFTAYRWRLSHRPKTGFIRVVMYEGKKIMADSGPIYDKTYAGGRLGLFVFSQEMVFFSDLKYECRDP

The experiment concerns the target human TSP1 (Homo sapiens, UniProt P07996). The experiment is described as follows: Cell adhesion inhibition assay (HUVEC adhesion to TSP1-coated plate). The following applies: read-out: cell adhesion inhibition (Table 4), tested form: TFA. The method, then:
As referred to herein, the TSP1 inhibitory activity refers to the activity to inhibit one or more effects of TSP1, including angiostatic effect. The TSP1 inhibitory activity is measured by a cell adhesion inhibition assay using human TSP1 and vascular endothelial cells as described hereinbelow in the Examples section. In this assay, when the 50% inhibitory concentration (IC5O) of a test substance is 200 nM or less, the test substance is determined to have TSP1 inhibitory activity.
(Test Example 1) Cell Adhesion Inhibition Assay
I. Materials and Reagents
96 well Non-treated White with clear bottom (Coster, 3632)
BrightMax adhesive sealing films (EXCEL Scientific, WT50) […]
To maintain HUVECs, EGM2-MV and a collagen coated dish were used (the cells were ceased to be used after 10th or 1 lth passage since the cell proliferation rate declined at this stage). […] The cells were resuspended in a DMEM buffer, counted for cell number, and diluted to 10000 cells/50 μL. […]
After cell adhesion was confirmed, the culture medium was completely removed by an aspirator, and 100 μL/well of DMEM/0.5% BSA was gently dispensed. […] Fluorescence emission was detected using EnVision Xcite Multilabel Reader (produced by Perkin Elmer).
On the basis of the measured fluorescence values, the IC50 values (nM) of the different macrocyclic polypeptides for inhibition of cell adhesion were calculated.

Each structure is given as a SMILES string.

In the case of `CCCC[C@@H]1NC(=O)[C@H](Cc2c[nH]c3ccccc23)NC(=O)[C@H](CC(=O)O)NC(=O)[C@H](CCCNC(=N)N)NC(=O)CNC(=O)[C@H](CO)NC(=O)[C@H]([C@@H](C)CC)NC(=O)[C@H](Cc2ccc3ccccc3c2)NC(=O)CS(=O)(=O)C[C@@H](C(N)=O)NC(=O)[C@H](C(C)C)NC(=O)[C@H](Cc2c[nH]c3ccccc23)NC(=O)[C@H](CCCCN)NC1=O`, the IC50 stood at 10.7 nM.
